Biological target: T1, NOD1 (Homo sapiens, UniProt Q9Y239)
T1 construct: THP-1 cells also express high levels of native functional NOD1 and NOD2 and respond to NOD stimulation by IL-8 secretion; endogenous in cells; host or cells: THP-1 cells (Istituto Zooprofilattico di Brescia)
T1 sequence (Q9Y239 1-953): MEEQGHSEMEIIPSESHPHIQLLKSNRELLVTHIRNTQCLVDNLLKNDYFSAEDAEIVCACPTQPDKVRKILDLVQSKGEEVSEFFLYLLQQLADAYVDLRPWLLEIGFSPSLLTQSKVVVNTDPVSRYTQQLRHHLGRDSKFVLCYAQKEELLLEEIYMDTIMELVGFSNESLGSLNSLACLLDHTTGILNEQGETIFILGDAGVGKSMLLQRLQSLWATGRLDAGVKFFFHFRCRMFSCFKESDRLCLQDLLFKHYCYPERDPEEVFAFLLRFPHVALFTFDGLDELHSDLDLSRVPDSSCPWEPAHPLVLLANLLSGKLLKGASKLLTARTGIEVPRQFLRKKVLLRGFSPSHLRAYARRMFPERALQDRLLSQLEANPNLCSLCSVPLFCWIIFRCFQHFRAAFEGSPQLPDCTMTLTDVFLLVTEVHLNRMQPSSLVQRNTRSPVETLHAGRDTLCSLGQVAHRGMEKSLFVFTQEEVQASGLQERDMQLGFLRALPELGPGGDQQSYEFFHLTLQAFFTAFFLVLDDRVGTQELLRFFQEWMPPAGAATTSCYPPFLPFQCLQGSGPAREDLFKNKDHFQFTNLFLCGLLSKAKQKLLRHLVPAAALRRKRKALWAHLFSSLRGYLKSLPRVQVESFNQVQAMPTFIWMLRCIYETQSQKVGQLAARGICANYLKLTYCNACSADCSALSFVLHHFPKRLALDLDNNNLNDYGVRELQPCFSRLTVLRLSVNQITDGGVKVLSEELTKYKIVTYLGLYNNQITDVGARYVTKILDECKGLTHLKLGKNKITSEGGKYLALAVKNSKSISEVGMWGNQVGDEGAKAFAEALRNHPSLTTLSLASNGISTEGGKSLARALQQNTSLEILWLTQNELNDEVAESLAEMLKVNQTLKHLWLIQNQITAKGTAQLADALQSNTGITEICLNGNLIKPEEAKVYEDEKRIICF
Assay: C12-iE-DAP (NOD1 agonist)-induced IL-8 secretion from THP-1 cells
Type: cell-based
Conditions: 1 h pretreatment, C12-iE-DAP 10 µM, 20 h, read-out: IC50 (NOD1), inhibition of IL-8 release
Description: For all experiments, THP-1 cells (Istituto Zooprofilattico di Brescia, Brescia, Italy) were diluted to 10^6 cells/mL in RPMI 1640 containing 2 mM L-glutamine, 0.1 mg/mL streptomycin, 100 IU/mL penicillin, 50 μM 2-mercaptoethanol, and supplemented with 10% heat-inactivated fetal calf serum (media) and cultured at 37 °C in 5% CO2. The experiments were carried out on passages 3–12. To evaluate IL-8 and TNF-α production, cultures were set up in 24-well culture plates containing 500 μL of cells. They were pretreated with selected NOD antagonists at increasing concentrations for 1 h before the addition of either MDP or C12-iE-DAP (both at 10 µM) and then incubated for 20 h. […]
IL-8 and TNF-α release from THP-1 cells were measured in cell-free supernatants obtained by centrifugation at 3000 rpm for 5 min and stored at −80 °C until measurement. IL-8 and TNF-α production were assessed by specific sandwich ELISA (Immunotools, Friesoythe, Germany; eBioScience/R&D Systems, Minneapolis, MN, USA). […]
All experiments were performed at least three times, with average values expressed as means ± standard deviation (SD). […] Statistical significance was determined either with the Mann-Whitney or Kruskal-Wallis followed by a post hoc Dunn’s multiple comparison test, as indicated in the figure legends. […] IC50 values of NOD1/2 inhibition were calculated by a nonlinear regression model using GraphPad Prism 6 software.

IC50: 2970 ± 310 nM
SMILES: Cc1ccc(S(=O)(=O)n2c(N)nc3ccccc32)cc1 [ML130]

— paper PMC6747088, “THP-1 Cells and Pro-Inflammatory Cytokine Production: An In Vitro Tool for Functional Characterization of NOD1/NOD2 Antagonists” (International Journal of Molecular Sciences, 2019)
